# Values of other authors as cited in PMC11284800 (Journal of Medicinal Chemistry, 2024).
# System: CB1R
# Parameters: method as in PMID 8070571, PMID 27240274, PMID 24175572
# Details: cited from earlier work
compound,measurement,value
"Cc1c(C(=O)NN2CCCCC2)nn(-c2ccc(Cl)cc2Cl)c1-c1ccc(Cl)cc1 [Compound 6, Rimonabant]",Functional profile at CB1R (in words),inverse agonist
